Drawing on publication PMC6624021, this text covers Kd for one substance.

For experiment [1], the target named is pLAT → Nck condensates (human). Kind of experiment: TIRF microscopy of rhodamine-actin filaments recruited to supported lipid bilayers; LAT condensates on bilayers without ezrin ABD; fluorescence of recruited actin against the concentration of actin filaments in solution, fitted to a Hill equation (Specific Binding with a Hill slope, GraphPad Prism); effective dissociation constants.

Experiment [2] addresses pLAT → N-WASP condensates (human). The description is as above.

As to “actin filaments (from UniProt P68135 1-377) (natural protein)”, the Kd in experiment [1] was found to be 410 nM; in experiment [2], 280 nM.
